PMC6146036 (Frontiers in Molecular Neuroscience, 2018)

Target: T1, human recombinant choline acetyltransferase (rChAT) (Homo sapiens, UniProt P28329)
T1 construct: made in house; host or cells: E. coli BL21 Rosetta2
T1 sequence (P28329 1-630 isoform P28329-3): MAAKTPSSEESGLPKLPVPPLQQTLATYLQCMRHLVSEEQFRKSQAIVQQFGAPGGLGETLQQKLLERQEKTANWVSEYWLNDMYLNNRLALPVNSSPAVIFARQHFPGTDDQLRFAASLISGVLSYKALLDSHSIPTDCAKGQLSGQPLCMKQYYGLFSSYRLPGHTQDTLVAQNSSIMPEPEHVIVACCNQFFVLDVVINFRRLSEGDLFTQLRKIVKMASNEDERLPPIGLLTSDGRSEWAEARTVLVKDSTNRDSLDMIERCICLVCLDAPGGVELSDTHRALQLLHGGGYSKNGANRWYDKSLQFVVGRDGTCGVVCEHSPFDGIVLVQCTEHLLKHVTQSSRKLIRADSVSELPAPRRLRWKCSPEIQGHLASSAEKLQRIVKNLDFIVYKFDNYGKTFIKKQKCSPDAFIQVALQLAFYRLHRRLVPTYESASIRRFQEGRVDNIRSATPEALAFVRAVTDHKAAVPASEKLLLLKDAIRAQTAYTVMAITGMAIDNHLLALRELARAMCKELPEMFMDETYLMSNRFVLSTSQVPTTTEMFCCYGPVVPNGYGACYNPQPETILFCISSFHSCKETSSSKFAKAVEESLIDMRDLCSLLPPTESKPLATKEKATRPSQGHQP
Assay: Fluorometric in vitro ChAT activity assay (human rChAT, CPM read-out)
Type: biochemical
Conditions: each peptide separately, no gelatin, fitted in 0–20 ng/mL (Aβ42) and 0–32 ng/mL (Aβ40) ranges; for EC50 for ChAT activation: ≥3 independent experiments
Description: Recombinant ChAT was purified as described previously ([Kumar et al., 2016a], [2017]). Briefly, DYT media was inoculated with an O/N culture of E. coli BL21 Rosetta2 transformed with pProExHTa-ChAT (a gift from Dr. Brian Shilton, Department of Biochemistry, University of Western Ontario, London, ON, Canada). The bacteria were grown in shaking incubator at 37°C with 200 rpm until the optical density at 600 nm reached 0.5. After which, 0.5 mM IPTG was added and His6-ChAT was expressed for approximately 16 h at 18°C. Next, the cells were harvested and His6-ChAT was purified with “Ni-NTA fast start Kit” (Qiagen) following the manufacturer’s instructions. The elution buffer was exchanged to storage buffer [10 mM Tris pH 7.4, 500 mM NaCl, 10% (v/v) glycerol] using 30 kDa molecular weight cutoff Amicon Ultra concentrators (Merck Millipore). The purity and molecular weight of the protein were determined using SDS-PAGE electrophoresis. The total protein concentration was determined using DC Protein Assay (Bio-Rad). The purified protein was aliquoted and stored at −80°C.
ChAT activity was measured with our newly developed robust in-house fluorometric assay, using human rChAT protein. […]
Then, 50 μL of a cocktail-A [dilution buffer containing 10 μM ACoA (final concentration) and 15 μM CPM (final concentration)] was added to each well. Immediately after adding the cocktail-A, the changes in fluorescence were monitored kinetically at 479 nm emission wavelength after exciting at 390 nm wavelength, at 1- to 2-min intervals for 15–20 min using a microplate spectrophotometer reader (Infinite M1000, Tecan).
Each Aβ peptide dilution was run in triplicates. […] The kinetic rate of enzyme activity (as ΔRFU/min slope data) was calculated and processed using the GraphPad Prism 7 analysis software. The actual rate values as well as statistical analysis values (P-values) of ChAT activity at different Aβ concentrations or alone were calculated after fitting the curve with the linear regression function in the GraphPad Prism 7. […]

EC50 for ChAT activation | EC50 for ChAT activation (Figure 3) (mean ± SD of ≥3 independent experiments) | Substance
~0.8 ng/mL |  | Aβ40: amyloid-β peptide, recombinant, purchased from rPeptide (Cat no. A-1153-1)
~0.07 ng/mL | ~ 0.068 ng/ml | Aβ42: amyloid-β peptide, recombinant, purchased from rPeptide (Cat no. A-1166-1)
